How the values were obtained:
yeast species = assay: Effect of levulinic acids plus SDS at 21° C. on various yeast species; conditions: for Yeast counts at 0 min: 0 min (delayed by 5 to 10 seconds)
mold species = assay: Effect of levulinic acids plus SDS at 21° C. on various mold species; conditions: for Mold counts at 0 min: 0 min (delayed by 5 to 10 seconds)
[1] = Candida magnoliae, inoculum […] 10^8 CFU/ml
[2] = Debaryomyces hansenii, inoculum […] 10^7 CFU/ml
[3] = Geotrichum candidum, inoculum […] 10^7 CFU/ml
[4] = Saccharomyces cerevisiae, inoculum […] 10^7 CFU/ml
[5] = Zygosaccharomyces bailii, inoculum […] 10^7 CFU/ml
[6] = Mucor hiemalis, inoculum […] 10^7 CFU/ml
[7] = Penicillium expansum, inoculum […] 10^7 CFU/ml
[8] = Penicillium pubeseus, inoculum 6.9 × 10^7 CFU/ml

With `CCCCCCCCCCCCOS(=O)(=O)[O-].[Na+]` [1.0% SDS] as the molecule, how does the “Yeast counts at 0 min” value (yeast species; [1]) read?
Its value is 3.5 log CFU/ml.

What about the “Yeast counts at 1 min” value (yeast species; [1]) of the same molecule?
The value was 3.5 log CFU/ml.

And the “Yeast counts at 10 min” value (yeast species; [1])?
The value was 3.2 log CFU/ml.

And the “Yeast counts at 0 min” value (yeast species; [2])?
The value was 4.5 log CFU/ml.

What about the “Yeast counts at 1 min” value (yeast species; [2]) of the same molecule?
Its value is 4.5 log CFU/ml.

And the “Yeast counts at 10 min” value (yeast species; [2])?
The value was 4.4 log CFU/ml.

What about the “Yeast counts at 0 min” value (yeast species; [3]) of the same molecule?
The value was 3.6 log CFU/ml.

And the “Yeast counts at 1 min” value (yeast species; [3])?
The value was 3.8 log CFU/ml.

What about the “Yeast counts at 10 min” value (yeast species; [3]) of the same molecule?
Its value is 3.7 log CFU/ml.

What about the “Yeast counts at 0 min” value (yeast species; [4]) of the same molecule?
The value was 2.7 log CFU/ml.

What about the “Yeast counts at 1 min” value (yeast species; [4]) of the same molecule?
Its value is 2.4 log CFU/ml.

What about the “Yeast counts at 10 min” value (yeast species; [4]) of the same molecule?
The value was 2.8 log CFU/ml.

And the “Yeast counts at 0 min” value (yeast species; [5])?
Its value is 4.6 log CFU/ml.

What about the “Yeast counts at 1 min” value (yeast species; [5]) of the same molecule?
Its value is 4.7 log CFU/ml.

And the “Yeast counts at 10 min” value (yeast species; [5])?
Its value is 4.6 log CFU/ml.

With `CCCCCCCCCCCCOS(=O)(=O)[O-].[Na+]` [2.0% SDS] as the molecule, how does the “Mold counts at 0 min” value (mold species; [6]) read?
Its value is 6.0 log CFU/ml.

What about the “Mold counts at 1 min” value (mold species; [6]) of the same molecule?
The value was 5.8 log CFU/ml.

And the “Mold counts at 2 min” value (mold species; [6])?
Its value is 5.8 log CFU/ml.

What about the “Mold counts at 5 min” value (mold species; [6]) of the same molecule?
The value was 6.0 log CFU/ml.

And the “Mold counts at 10 min” value (mold species; [6])?
The value was 5.9 log CFU/ml.

And the “Mold counts at 20 min” value (mold species; [6])?
Its value is 5.8 log CFU/ml.

What about the “Mold counts at 30 min” value (mold species; [6]) of the same molecule?
Its value is 5.8 log CFU/ml.

What about the “Mold counts at 60 min” value (mold species; [6]) of the same molecule?
Its value is 5.4 log CFU/ml.

And the “Mold counts at 0 min” value (mold species; [7])?
The value was 4.2 log CFU/ml.

What about the “Mold counts at 1 min” value (mold species; [7]) of the same molecule?
Its value is 4.1 log CFU/ml.

And the “Mold counts at 2 min” value (mold species; [7])?
Its value is 3.8 log CFU/ml.

What about the “Mold counts at 5 min” value (mold species; [7]) of the same molecule?
The value was 3.4 log CFU/ml.

And the “Mold counts at 10 min” value (mold species; [7])?
Its value is 3.5 log CFU/ml.

What about the “Mold counts at 20 min” value (mold species; [7]) of the same molecule?
The value was 3.5 log CFU/ml.

What about the “Mold counts at 30 min” value (mold species; [7]) of the same molecule?
Its value is 3.5 log CFU/ml.

What about the “Mold counts at 60 min” value (mold species; [7]) of the same molecule?
Its value is 3.6 log CFU/ml.

What about the “Mold counts at 0 min” value (mold species; [8]) of the same molecule?
Its value is 4.4 log CFU/ml.

And the “Mold counts at 1 min” value (mold species; [8])?
The value was 4.3 log CFU/ml.

And the “Mold counts at 2 min” value (mold species; [8])?
Its value is 4.4 log CFU/ml.

What about the “Mold counts at 5 min” value (mold species; [8]) of the same molecule?
The value was 4.4 log CFU/ml.

What about the “Mold counts at 10 min” value (mold species; [8]) of the same molecule?
The value was 4.5 log CFU/ml.

And the “Mold counts at 20 min” value (mold species; [8])?
The value was 4.5 log CFU/ml.

What about the “Mold counts at 30 min” value (mold species; [8]) of the same molecule?
The value was 4.4 log CFU/ml.

What about the “Mold counts at 60 min” value (mold species; [8]) of the same molecule?
Its value is 4.4 log CFU/ml.

How did the “Yeast counts at 0 min” value (yeast species; [2]) turn out when `CC(=O)CCC(=O)O` [2.0% levulinic acid, levulinic acid] was run?
The value was 4.9 log CFU/ml.

What about the “Yeast counts at 1 min” value (yeast species; [2]) of the same molecule?
Its value is 4.8 log CFU/ml.

And the “Yeast counts at 10 min” value (yeast species; [2])?
The value was 4.4 log CFU/ml.

What about the “Yeast counts at 0 min” value (yeast species; [3]) of the same molecule?
The value was 4.6 log CFU/ml.

And the “Yeast counts at 1 min” value (yeast species; [3])?
The value was 4.4 log CFU/ml.

What about the “Yeast counts at 10 min” value (yeast species; [3]) of the same molecule?
Its value is 4.1 log CFU/ml.

And the “Yeast counts at 0 min” value (yeast species; [4])?
The value was 5.4 log CFU/ml.

And the “Yeast counts at 1 min” value (yeast species; [4])?
The value was 5.3 log CFU/ml.

What about the “Yeast counts at 10 min” value (yeast species; [4]) of the same molecule?
The value was 5.3 log CFU/ml.

What about the “Yeast counts at 0 min” value (yeast species; [5]) of the same molecule?
The value was 5.4 log CFU/ml.

And the “Yeast counts at 1 min” value (yeast species; [5])?
The value was 5.4 log CFU/ml.

What about the “Yeast counts at 10 min” value (yeast species; [5]) of the same molecule?
The value was 5.4 log CFU/ml.

How did the “Yeast counts at 0 min” value (yeast species; [1]) turn out when `CC(=O)CCC(=O)O` [2.0% levulinic acids] was run?
Its value is 6.0 log CFU/ml.

And the “Yeast counts at 1 min” value (yeast species; [1])?
Its value is 5.9 log CFU/ml.

What about the “Yeast counts at 10 min” value (yeast species; [1]) of the same molecule?
Its value is 6.0 log CFU/ml.

For `CC(=O)CCC(=O)O` [3.0% levulinic acid, levulinic acid], which “Mold counts at 0 min” value (mold species; [8]) is on record?
The value was 5.2 log CFU/ml.

And the “Mold counts at 1 min” value (mold species; [8])?
The value was 4.9 log CFU/ml.

And the “Mold counts at 2 min” value (mold species; [8])?
The value was 4.8 log CFU/ml.

What about the “Mold counts at 5 min” value (mold species; [8]) of the same molecule?
Its value is 5.2 log CFU/ml.

What about the “Mold counts at 10 min” value (mold species; [8]) of the same molecule?
The value was 4.0 log CFU/ml.

What about the “Mold counts at 20 min” value (mold species; [8]) of the same molecule?
The value was 3.2 log CFU/ml.

What about the “Mold counts at 30 min” value (mold species; [8]) of the same molecule?
Its value is 2.7 log CFU/ml.

And the “Mold counts at 60 min” value (mold species; [8])?
Its value is 1.7 log CFU/ml.

`CC(=O)CCC(=O)O` [3.0% levulinic acids] was tested. Which “Mold counts at 0 min” value (mold species; [6]) did it give?
Its value is 6.1 log CFU/ml.

What about the “Mold counts at 1 min” value (mold species; [6]) of the same molecule?
The value was 6.2 log CFU/ml.

And the “Mold counts at 2 min” value (mold species; [6])?
The value was 6.2 log CFU/ml.

What about the “Mold counts at 5 min” value (mold species; [6]) of the same molecule?
Its value is 6.0 log CFU/ml.

And the “Mold counts at 10 min” value (mold species; [6])?
Its value is 5.8 log CFU/ml.

What about the “Mold counts at 20 min” value (mold species; [6]) of the same molecule?
Its value is 5.1 log CFU/ml.

And the “Mold counts at 30 min” value (mold species; [6])?
Its value is 4.8 log CFU/ml.

And the “Mold counts at 60 min” value (mold species; [6])?
The value was 4.1 log CFU/ml.

And the “Mold counts at 0 min” value (mold species; [7])?
The value was 4.3 log CFU/ml.

And the “Mold counts at 1 min” value (mold species; [7])?
The value was 4.4 log CFU/ml.

What about the “Mold counts at 2 min” value (mold species; [7]) of the same molecule?
The value was 4.2 log CFU/ml.

And the “Mold counts at 5 min” value (mold species; [7])?
The value was 4.0 log CFU/ml.

And the “Mold counts at 10 min” value (mold species; [7])?
Its value is 3.7 log CFU/ml.

What about the “Mold counts at 20 min” value (mold species; [7]) of the same molecule?
The value was 3.3 log CFU/ml.

What about the “Mold counts at 30 min” value (mold species; [7]) of the same molecule?
The value was 3.3 log CFU/ml.

And the “Mold counts at 60 min” value (mold species; [7])?
The value was 2.4 log CFU/ml.
